## scFv variants of Ab-14 (light chain) against a SARS-CoV-2 spike peptide

Data: MIT Lincoln Laboratory AlphaSeq set, Li et al. 2023, doi:10.1038/s41467-023-39022-2, as distributed in FLAb.

The target is the same throughout: PDVDLGDISGINAS, from the HR2 region of SARS-CoV-2 spike.

The variants keep the heavy chain, the linker and the frameworks of Ab-14 (scFv order VH, a 15-residue (Gly4Ser)3 linker, VL).
VH: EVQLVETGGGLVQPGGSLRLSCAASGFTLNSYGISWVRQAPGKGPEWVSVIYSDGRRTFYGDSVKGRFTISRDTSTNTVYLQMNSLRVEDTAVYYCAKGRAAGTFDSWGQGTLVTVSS
VL: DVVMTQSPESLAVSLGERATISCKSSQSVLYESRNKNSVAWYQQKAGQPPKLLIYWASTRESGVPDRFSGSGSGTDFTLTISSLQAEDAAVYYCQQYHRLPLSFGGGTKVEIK

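The parent was found by panning a naive human phage display library on the peptide. Designed CDR sequences, proposed from the first random library and measured here. Their group label is 14L_En_Gen (En: ensemble of fine-tuned language models; Gen: genetic algorithm). AlphaSeq pools MATa yeast showing the antibodies with MATalpha yeast showing the peptide. The frequency of each diploid, read from paired DNA barcodes, reflects how well the two displayed proteins bind. Scores were corrected for input abundance and mapped to Kd with protein pairs of known affinity run in the same pool. Mating was done six times.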

Variants are written as CDR1, CDR2 and CDR3 of the light chain (limits as in the source). Parent: KSSQSVLYESRNKNSVA, WASTRES, QQYHRLPLS.
Values are log10 of the apparent Kd in nM; lower means stronger binding.
The mean shown is taken over the replicates in which the pair was detected.
"ND" marks a missing value. The strain was present, yet no cells mated with the target were sequenced in that replicate, which points to weak or no binding.
Empty control strains, which show no peptide, gave a signal in 4% of pairings with all light chain designs; the median was 2.64 and 95% of these signals were weaker than 1.59. No background was subtracted. Also given: how often the same scFv was detected with the empty control strains, with their mean in brackets.
A sequence measured in both rounds can read differently, since the two assays cover different ranges.
The authors' rule: three or more of the six replicates give a measured affinity, fewer mean a poor binder.
Of ten entries with the parent sequence, four were seen in most replicates (averages 0.34 to 2.37), three in one and three in none, so single entries are noisy.

CDR-L1	CDR-L2	CDR-L3	log10 Kd, replicates	mean, log10 nM	control signals
KIGMTLNQLMQKKNNVA	DLVEREN	QQYFRLPLS	0.18 / 0.38 / 0.06 / -0.18 / 0.09 / 0.30	0.14	1/18 (2.28)
TISQITSLFSQTINNVA	EVTTREE	QQYDRLPLS	0.96 / 0.95 / 1.09 / 1.39 / 0.69 / 1.20	1.05	2/18 (2.30)
MIYGMDRELGRAANSIA	DNVTRYD	QQYNRLPLD	2.55 / 2.11 / ND / 3.07 / 2.86 / 2.50	2.62	1/18 (4.16)
KITATMRFEQKQKNNIA	EVTTRSK	QQYYRLPLA	0.92 / 1.07 / 0.85 / 1.40 / 0.83 / 1.11	1.03	0/18
KIGMTLNQLQEKKNNVA	DLVAREN	QQYHRLPLS	0.78 / 0.34 / 0.52 / 0.39 / 0.56 / 0.42	0.50	1/18 (2.28)
MVTQMAMTGMKNKRSVA	NATTREP	QQYHRLPLI	1.11 / 0.96 / 0.71 / 0.49 / 1.10 / 1.22	0.93	0/18
TLYGLSMSMSKNKNNVA	EMTTREK	QQYDRLPLQ	0.80 / 0.72 / 0.62 / 0.97 / 0.54 / 0.99	0.77	0/18
KVSEYMRGLMQRKDSIA	DNETRNS	QQYDRLPLS	1.74 / 1.67 / 3.80 / ND / 1.88 / 2.62	2.34	0/18
KFSQMSNQFSVSMNAVA	EMTTREE	QQYNRLPLA	0.62 / 0.18 / 0.40 / 0.28 / 0.10 / 0.36	0.32	0/18
HIGLATMSEETVRNSVA	NNSTRES	QQYDRLPLS	1.81 / 1.80 / 2.60 / 1.79 / 2.16 / 2.29	2.08	3/18 (3.13)
IIDQLMYHGNKRANSIA	QASERLN	QQYHHLPLF	1.40 / 1.32 / 1.37 / 1.56 / 1.27 / 1.36	1.38	4/18 (2.97)
IVSQLMLIGMHAKNSIA	EASTRIN	QQYERLPLF	ND / 1.50 / ND / 1.88 / 1.62 / ND	1.67	0/18
QLSMISGHASMIKNNVA	EMETREN	QQYDRLPLS	0.75 / 1.73 / 0.56 / 0.92 / 0.91 / 1.28	1.03	0/18
KIGMTLNQMMHKKNNVA	DLVTREN	QQYFRLPLS	0.46 / 0.31 / 0.36 / 0.15 / 0.33 / 0.62	0.37	0/18
KLSMTTEMEHVNRNSVA	ELVTRMR	QQYNRLPLS	0.75 / 0.65 / 0.65 / 0.80 / 0.68 / 0.89	0.74	0/18
TLYGLSMSMSKNKNNVA	EMTTREK	QQYDRLPLA	0.52 / 0.21 / 0.67 / -0.03 / 0.44 / 0.68	0.42	0/18
KVSEFMKGLMMRTDSIA	DNTTRSN	QQYDRLPLS	0.70 / 0.90 / 0.50 / 0.47 / 0.74 / 1.08	0.73	2/18 (2.31)
HLGLATMLEETVRNSVA	NNSTRES	QQYDRLPLS	1.59 / 2.09 / 1.48 / 2.09 / 2.30 / ND	1.91	0/18
MISQLYNMGTFAINSVA	QASLRCN	QQYDRLPLA	ND / ND / 1.77 / 1.36 / 1.20 / 2.95	1.82	0/18
KLVQFMNRGTHHTSNIA	DAQQRLD	QQYYRLPLA	1.01 / 0.57 / 0.35 / 1.46 / 3.06 / 0.06	1.09	0/18
MISQIMNMGQFAINSVA	QASMRCN	QQYDRLPLM	ND / 1.54 / 2.77 / 1.77 / 2.00 / ND	2.02	0/18
MLSQMTGWGMKTSNSVA	QAQTRFN	QQYYRLPLI	2.20 / 2.17 / 1.31 / 1.67 / 1.43 / 1.62	1.73	1/18 (1.51)
IVSQLMLWGMHAKNSIA	EAELRLN	QQYDRLPLF	ND / ND / ND / ND / ND / ND	ND	0/18
HITMGMYVKGRHHSSIA	QAETRAK	QQYDRLPLM	2.59 / 1.40 / 1.13 / 1.48 / 2.12 / 2.23	1.83	0/18
MISQVMNTLTRNGNNVA	DLQERED	QQYFRLPLS	0.89 / 0.81 / 0.65 / 1.04 / 1.55 / 1.89	1.14	0/18
HMSMVTLSGMRHTNSVA	QMTTRVN	QQYDRLPLM	1.31 / 1.16 / 0.67 / 1.00 / 0.63 / 0.71	0.91	4/18 (3.28)
MISQIMNMGQFAINSVA	QAEIRNA	QQYDRLPLA	1.47 / 3.31 / 2.07 / 1.85 / 1.61 / 1.87	2.03	1/18 (1.32)
HMSALTLGGMRMRNSVA	QMTTREN	QQYDRLPLA	0.37 / 0.92 / 0.51 / 0.44 / 0.80 / 0.89	0.66	1/18 (2.10)
TISQMTSLFSQSINNVA	EVSTREK	QQYDRLPLT	1.25 / 0.85 / 0.70 / 1.75 / 0.96 / 1.17	1.11	0/18
MISQVMNSLTHTGNNVA	DLQEREH	QQYFRLPLS	1.02 / 0.97 / 1.60 / ND / 2.24 / ND	1.46	0/18